Data reported in PubChem BioAssay (NCI).
Some of these compounds have results that are not shown, active ones among them.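 Five compound concentrations were applied to cells in 96-well plates for 48 hours; endpoints were derived by simple linear interpolation of the resulting dose-response curve. Abbreviation: GI50, concentration required for 50% inhibition of growth.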

Key:
Assay in all cases: growth of human tumour cells (NCI), 48 h; in the data active = GI50 below about 0.43 µM; inactive = the rest
[1] = tested on: HL-60(TB) leukemia
[2] = tested on: DU-145 prostate
[3] = tested on: SF-539 CNS
[4] = tested on: NCI-H460 lung
[5] = tested on: IGROV1 ovarian
[6] = tested on: HCT-116 colon
[7] = tested on: MDA-MB-231 breast
[8] = tested on: CCRF-CEM leukemia
[9] = tested on: U251 CNS
[10] = tested on: A498 renal
[11] = tested on: CAKI-1 renal
[12] = tested on: MDA-N
[13] = tested on: HCC-2998 colon
[14] = tested on: PC-3 prostate
[15] = tested on: HOP-62 NSCLC
[16] = tested on: OVCAR-8 ovarian
[17] = tested on: BT-549 breast
[18] = tested on: A549 NSCLC
[19] = tested on: MCF7 breast
[20] = tested on: 786-0 renal
[21] = tested on: UACC-257 melanoma
[22] = tested on: NCI-H322M lung
[23] = tested on: UO-31 renal
[24] = tested on: SNB-19 CNS
[25] = tested on: SK-MEL-5 melanoma
[26] = tested on: MALME-3M melanoma
[27] = tested on: SN12C renal
[28] = tested on: M14 melanoma
[29] = tested on: SF-268 CNS
[30] = tested on: OVCAR-3 ovarian
[31] = tested on: OVCAR-5 ovarian
[32] = tested on: HS 578T breast
[33] = tested on: EKVX NSCLC
[34] = tested on: TK-10 renal
[35] = tested on: MDA-MB-435
[36] = tested on: SR leukemia
[37] = tested on: SK-OV-3 ovarian
[38] = tested on: LOX IMVI melanoma
[39] = tested on: HOP-92 NSCLC
[40] = tested on: KM12 colon
[41] = tested on: UACC-62 melanoma
[42] = tested on: NCI/ADR-RES ovarian
[43] = tested on: MOLT-4 leukemia
[44] = tested on: SF-295 CNS
[45] = tested on: T-47D breast
[46] = tested on: SW-620 colon
[47] = tested on: RPMI-8226 leukemia
[48] = tested on: SK-MEL-2 melanoma
[49] = tested on: COLO 205 colon
[50] = tested on: K-562 leukemia
[51] = tested on: NCI-H226 lung
[52] = tested on: RXF 393 renal
[53] = tested on: SK-MEL-28 melanoma
[54] = tested on: HT29 colon
[55] = tested on: SNB-75 CNS
[56] = tested on: NCI-H522 lung
[57] = tested on: NCI-H23 lung
[58] = tested on: HCT-15 colon
[59] = tested on: ACHN renal
[60] = tested on: OVCAR-4 ovarian

Measured: GI50

CN1CCC(OC(=O)C(O)(c2ccccc2)c2cccc3c2OC(C)(C)C3)CC1 (stereo not given)
inactive: [1] 29.8 µM | [2] 88.6 µM | [3] 34.9 µM | [4] 45.5 µM | [5] 26.1 µM | [6] 50.4 µM | [7] 39.3 µM | [8] 46.3 µM | [9] 60.4 µM | [10] 73.7 µM | [11] 77.8 µM | [12] 53.4 µM | [13] 28.5 µM | [14] 44.4 µM | [15] 100 µM | [16] 93.2 µM | [17] 84.6 µM | [18] 95.8 µM | [19] > 100 µM | [20] 80.8 µM | [21] 19.1 µM | [22] > 100 µM | [23] 39.9 µM | [24] > 100 µM | [25] 17.3 µM | [26] 19.5 µM | [27] > 100 µM | [28] 17.1 µM | [29] 70.7 µM | [30] 63.8 µM | [31] 87.6 µM | [32] 22.8 µM | [33] > 100 µM | [34] 63.2 µM | [35] 44.9 µM | [36] 23.1 µM | [37] > 100 µM | [38] 29.7 µM | [39] 25.3 µM | [40] 82 µM | [41] 41.7 µM | [42] 90.8 µM | [43] 28.1 µM | [44] 59.7 µM | [45] 57.8 µM | [46] > 100 µM | [47] 29.5 µM | [48] 47.2 µM | [49] 21 µM | [50] 30.4 µM | [51] > 100 µM | [52] 19.9 µM | [53] 19.6 µM | [54] 24.7 µM | [55] 20.2 µM | [56] 48.7 µM | [57] > 100 µM | [58] > 100 µM | [59] 66.7 µM | [60] 88.4 µM
